Measurements reported in article PMC11235159, “Targeting a microbiota Wolbachian aminoacyl-tRNA synthetase to block its pathogenic host” (Science Advances, 2024).

Amino acid sequences for entries named in this document (tags omitted).
UniProt Q5GS31, whole entry: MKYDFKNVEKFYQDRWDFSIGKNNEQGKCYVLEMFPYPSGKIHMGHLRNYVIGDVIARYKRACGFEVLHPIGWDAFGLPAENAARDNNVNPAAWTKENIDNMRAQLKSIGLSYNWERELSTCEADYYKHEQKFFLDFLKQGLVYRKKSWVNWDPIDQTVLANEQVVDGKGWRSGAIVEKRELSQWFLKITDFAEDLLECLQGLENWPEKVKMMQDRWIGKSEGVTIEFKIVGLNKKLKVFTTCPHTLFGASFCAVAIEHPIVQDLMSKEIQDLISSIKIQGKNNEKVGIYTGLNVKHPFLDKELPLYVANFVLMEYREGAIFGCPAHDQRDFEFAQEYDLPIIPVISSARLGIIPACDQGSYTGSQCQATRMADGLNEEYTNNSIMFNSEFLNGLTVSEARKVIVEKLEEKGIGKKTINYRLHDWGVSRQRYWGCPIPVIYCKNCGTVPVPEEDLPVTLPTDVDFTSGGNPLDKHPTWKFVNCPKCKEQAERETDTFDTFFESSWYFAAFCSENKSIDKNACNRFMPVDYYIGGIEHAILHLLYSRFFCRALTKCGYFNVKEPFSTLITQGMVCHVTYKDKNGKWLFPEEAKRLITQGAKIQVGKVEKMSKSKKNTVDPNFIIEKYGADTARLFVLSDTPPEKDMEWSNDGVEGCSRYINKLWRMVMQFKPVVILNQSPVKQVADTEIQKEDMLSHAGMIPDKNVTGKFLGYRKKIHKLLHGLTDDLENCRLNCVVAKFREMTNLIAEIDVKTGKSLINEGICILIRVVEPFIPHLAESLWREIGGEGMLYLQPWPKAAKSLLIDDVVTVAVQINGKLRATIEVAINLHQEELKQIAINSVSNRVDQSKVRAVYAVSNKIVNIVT

Key:
[1] = tested on: W. pipientis (wAlbB) in C6/36 cells; experiment: A·WOL anti-Wolbachia screening assay in infected C6/36 (wAlbB) insect cells; format: cell-based, Wolbachia pipientis; details: read-out: Efficacy in Infected Host EC50; C6/36 (wAlbB) cells, 7 days
[2] = molecular target: T1, Wolbachia LeuRS (full-length) (Wolbachia sp. subsp. Brugia malayi, UniProt Q5GS31)
[3] = molecular target: T1, Wolbachia LeuRS (full-length); experiment: Reactivation rate (half-life of inhibition) of Wolbachia LeuRS after dilution of inhibitor complex; details: time for LeuRS to recover 50% of its activity after 200-fold dilution

Row | SMILES | EC50 [1] | IC50 [2] | T ½ (half-life inhibition time, reactivation rate) [3]
1 | COc1ccc(Br)c2c1B(O)O[C@@H]2CN | 360 nM |  | 
2 | COc1ccc(Cl)c2c1B(O)O[C@@H]2CN | 330 nM | 290 nM | 
3 | COc1cccc2c1B(O)O[C@@H]2CN | 3770 nM | 340 nM | 
4 | NC[C@H]1OB(O)c2c(OCCCN3CCOCC3)ccc(Br)c21 | 1430 nM | 210 nM | 
5 | NC[C@H]1OB(O)c2c(OCCCNc3nccs3)ccc(Br)c21 | 570 nM | 120 nM | 55 min
6 | CN(C(=O)CCOc1ccc(Br)c2c1B(O)O[C@@H]2CN)c1nccs1 | 6900 nM | 140 nM | 2.5 min
